# CycPeptMPDB entries from one study

Collected by the curators of CycPeptMPDB (Li et al. 2023) from Townsend et al. 2020, doi:10.26434/chemrxiv.13335941.v1.

PAMPA is the parallel artificial membrane permeability assay, which has no cells and reads passive diffusion.
Values are log10 P with P in cm/s, so -5 is more permeable than -7.

PAMPA (log10 cm/s)	SMILES
-6.26	CC(C)C[C@@H]1NC(=O)[C@H](C)N(C)C(=O)[C@H]2CCCN2C(=O)[C@H](Cc2ccccc2)NC(=O)[C@@H](CC(C)C)NC(=O)[C@H]2CCCN2C(=O)C[C@H](Cc2ccccc2)NC1=O
-5.15	CCCN1CC(=O)N(C)[C@H](CC(C)C)C(=O)N(C)[C@@H](CC(C)C)C(=O)N2CCC[C@@H]2C(=O)N(Cc2ccccc2)CC(=O)N[C@@H](Cc2ccccc2)C1=O
-4.98	CCCN1CC(=O)N(C)[C@@H](CC(C)C)C(=O)N[C@@H](CC(C)C)C(=O)N2CCC[C@@H]2C(=O)N(C)[C@H](CC(C)C)C(=O)N[C@@H](Cc2ccccc2)C1=O
-6.37	CC(C)C[C@@H]1C(=O)N2CCC[C@@H]2C(=O)N(Cc2ccccc2)CC(=O)N[C@@H](Cc2ccccc2)C(=O)N[C@H](C)C(=O)N[C@H](CC(C)C)C(=O)N1C
-5.19	CCCN1CC(=O)N(C)[C@@H](CC(C)C)C(=O)N[C@@H](CC(C)C)C(=O)N2CCC[C@@H]2C(=O)N(C)[C@H](CC(C)C)C(=O)N[C@@H](Cc2ccccc2)C(=O)N2CCC[C@@H]2C1=O
-5.75	CC(C)C[C@@H]1NC(=O)C[C@H](Cc2ccccc2)NC(=O)[C@H]2CCCN2C(=O)[C@H](Cc2ccccc2)NC(=O)[C@H](CC(C)C)N(C)C(=O)[C@H]2CCCN2C(=O)CN(Cc2ccccc2)C1=O
-5.18	CC(C)C[C@H]1NC(=O)[C@H](CC(C)C)N(C)C(=O)[C@H](C)NC(=O)[C@@H]2CCCN2C(=O)[C@H](Cc2ccccc2)NC(=O)[C@H](CC(C)C)N(C)C(=O)[C@H]2CCCN2C1=O
-6.42	CC(C)C[C@H]1NC(=O)[C@@H]2CCCN2C(=O)C[C@H](Cc2ccccc2)NC(=O)[C@H](CC(C)C)N(C)C(=O)[C@H](C)NC(=O)[C@@H]2CCCN2C(=O)[C@H](Cc2ccccc2)NC1=O
-5.34	CC(C)C[C@@H]1C(=O)N[C@@H](Cc2ccccc2)CC(=O)N2CCC[C@H]2C(=O)N(C)[C@H](CC(C)C)C(=O)N[C@@H](Cc2ccccc2)C(=O)N2CCC[C@@H]2C(=O)N[C@@H](Cc2ccccc2)CC(=O)N1C
-5.21	CCCN1CC(=O)N(C)[C@H](CC(C)C)C(=O)N[C@H](CC(C)C)C(=O)N2CCC[C@@H]2C(=O)N(Cc2ccccc2)CC(=O)N[C@@H](Cc2ccccc2)C(=O)N2CCC[C@H]2C1=O
-6.45	CC(C)C[C@@H]1C(=O)N(C)[C@@H](CC(C)C)C(=O)N2CCC[C@H]2C(=O)N[C@H](CC(C)C)C(=O)N[C@@H](Cc2ccccc2)C(=O)N2CCC[C@@H]2C(=O)N[C@H](C)C(=O)N1C
-7.66	CC(C)C[C@@H]1NC(=O)[C@H](C)N(C)C(=O)[C@@H]2CCCN2C(=O)[C@H](Cc2ccccc2)NC(=O)[C@@H](CC(C)C)NC(=O)[C@@H]2CCCN2C(=O)[C@H](CC(C)C)N(C)C1=O
-5.94	CC(C)C[C@@H]1NC(=O)[C@@H]2CCCN2C(=O)CN(Cc2ccccc2)C(=O)[C@H](CC(C)C)NC(=O)[C@@H](C)N(C)C(=O)[C@H]2CCCN2C(=O)[C@H](Cc2ccccc2)NC1=O
-5.17	CCCN1CC(=O)N(C)[C@@H](CC(C)C)C(=O)N(Cc2ccccc2)CC(=O)N2CCC[C@@H]2C(=O)N(C)[C@@H](CC(C)C)C(=O)N[C@@H](Cc2ccccc2)C(=O)N2CCC[C@@H]2C1=O
-6.33	CC(C)C[C@@H]1NC(=O)[C@H](C)NC(=O)[C@H](Cc2ccccc2)NC(=O)[C@@H](CC(C)C)NC(=O)[C@@H]2CCCN2C(=O)CN(Cc2ccccc2)C1=O
-5.65	CC(C)C[C@@H]1C(=O)N2CCC[C@@H]2C(=O)N(C)[C@@H](CC(C)C)C(=O)N[C@@H](Cc2ccccc2)C(=O)N[C@@H](C)C(=O)N[C@H](CC(C)C)C(=O)N1C

The last 2 entries again:

{"smiles": "CC(C)C[C@@H]1NC(=O)[C@H](C)NC(=O)[C@H](Cc2ccccc2)NC(=O)[C@@H](CC(C)C)NC(=O)[C@@H]2CCCN2C(=O)CN(Cc2ccccc2)C1=O", "PAMPA (log10 cm/s)": "-6.33"}
{"smiles": "CC(C)C[C@@H]1C(=O)N2CCC[C@@H]2C(=O)N(C)[C@@H](CC(C)C)C(=O)N[C@@H](Cc2ccccc2)C(=O)N[C@@H](C)C(=O)N[C@H](CC(C)C)C(=O)N1C", "PAMPA (log10 cm/s)": "-5.65"}

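Lipid, pH, incubation time, direction and concentration are not recorded in the data file. Other peptides of the study may be missing here. Entries at the database's floor value (log10 P of -10) are not listed.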